Several values for one entry are separate records, joined by “and”; a condition that tells them apart may be missing. Identical values can stand only once.
target: T1, Acetylcholinesterase (Mus musculus) (UniProt P21836); assay: Antidotal activity measured in mice exposed to soman; activity expressed as the no. of survivors at 24 hr out of population of 10 mice exposed intramuscularly at a dose 1/16 of 2LD50 of the compound
T1 sequence (whole entry): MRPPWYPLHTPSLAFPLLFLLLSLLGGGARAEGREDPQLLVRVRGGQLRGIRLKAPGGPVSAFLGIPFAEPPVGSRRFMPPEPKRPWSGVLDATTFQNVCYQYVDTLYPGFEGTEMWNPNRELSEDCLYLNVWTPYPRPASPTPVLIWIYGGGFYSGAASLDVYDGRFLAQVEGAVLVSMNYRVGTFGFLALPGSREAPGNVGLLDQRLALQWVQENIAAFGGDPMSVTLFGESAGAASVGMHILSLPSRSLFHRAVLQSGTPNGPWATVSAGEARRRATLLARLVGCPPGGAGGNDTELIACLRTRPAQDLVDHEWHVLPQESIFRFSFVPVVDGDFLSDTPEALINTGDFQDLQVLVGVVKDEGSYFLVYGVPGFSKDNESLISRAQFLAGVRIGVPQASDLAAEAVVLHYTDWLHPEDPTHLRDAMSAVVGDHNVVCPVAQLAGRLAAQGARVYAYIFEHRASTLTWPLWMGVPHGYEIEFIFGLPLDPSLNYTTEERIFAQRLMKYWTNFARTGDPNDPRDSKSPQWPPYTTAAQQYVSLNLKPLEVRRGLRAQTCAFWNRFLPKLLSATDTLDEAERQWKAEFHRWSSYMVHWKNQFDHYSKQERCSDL

Row | SMILES | No. of survivors
1 | C[n+]1ccn(COCCCCS(C)(=O)=O)c1/C=N/O | 2
2 | C[n+]1ccn(COC(C)(C)C[N+](=O)[O-])c1/C=N/O | 5
3 | C[n+]1ccn(COCCS(C)(=O)=O)c1/C=N/O | 9
4 | CC(OCn1cc[n+](C)c1C(N)=O)C(C)(C)[N+](=O)[O-] (configuration not stated) | 4
5 | CCC(Cn1cc[n+](C)c1/C=N/O)NS(=O)(=O)C(F)(F)F (configuration not stated) | 0
6 | C[n+]1ccn(CCN(Cc2ccccc2)S(=O)(=O)c2ccccc2)c1/C=N/O | 5
7 | C[n+]1ccn(CCCNS(=O)(=O)C(F)(F)F)c1/C=N/O | 0
8 | CC[N+](C)(CC)CCn1cc[n+](C)c1/C=N/O | 0
9 | CC(CCn1cc[n+](C)c1/C=N/O)C(C)(C)[N+](=O)[O-] (configuration not stated) | 3
10 | CCC(Cn1cc[n+](C)c1/C=N/O)N(C)C (configuration not stated) | 0
11 | C[n+]1ccn(COCC(C)(C)[N+](=O)[O-])c1/C=N/O | 8
12 | CN(CCOCn1cc[n+](C)c1/C=N/O)S(=O)(=O)C(F)(F)F | 6
13 | CCCN(CCn1cc[n+](C)c1/C=N/O)S(=O)(=O)C(F)(F)F | 5
14 | CC[n+]1ccn(CCN(C)S(=O)(=O)C(F)(F)F)c1/C=N/O | 5
15 | C[n+]1ccn(CCC[n+]2ccc(C(N)=O)cc2)c1/C=N/O | 7
16 | CCN(CCn1cc[n+](C)c1/C=N/O)S(C)(=O)=O | 9
17 | CCCN(CCn1cc[n+](C)c1/C=N/O)S(=O)(=O)c1ccccc1 | 9

Row | SMILES | No. of survivors
18 | CC[n+]1ccn(CCCS(C)(=O)=O)c1/C=N/O | 4
19 | CN(CCCn1cc[n+](C)c1/C=N/O)S(=O)(=O)c1ccccc1 | 0
20 | CC[n+]1ccn(COC(C)(C)C[N+](=O)[O-])c1/C=N/O | 0
21 | CCC[n+]1ccn(CCN(C)C)c1/C=N/O | 0
22 | CN(CCn1cc[n+](C)c1/C=N/O)S(=O)(=O)C(F)(F)F | 8
23 | CCS(=O)(=O)CCOCn1cc[n+](C)c1/C=N/O | 4
24 | C[n+]1ccn(COCCS(=O)(=O)c2ccccc2)c1/C=N/O | 4
25 | CN(CCCn1cc[n+](C)c1/C=N/O)S(=O)(=O)C(F)(F)F | 10
26 | C[n+]1ccn(COCCCS(C)(=O)=O)c1/C=N/O | 9
27 | CC(OCn1cc[n+](C)c1/C=N/O)C(C)S(C)(=O)=O (configuration not stated) | 7 and 9
28 | C[n+]1ccn(COCCS(C)(=O)=O)c1C(N)=O | 1
29 | C[n+]1ccn(CCCC(C)(C)[N+](=O)[O-])c1/C=N/O | 1
30 | CN(C)CCn1cc[n+](C)c1/C=N/O | 0
31 | CCN(CCn1cc[n+](C)c1/C=N/O)S(=O)(=O)C(F)(F)F | 10
32 | C[n+]1ccn(CCCNS(=O)(=O)c2ccccc2)c1/C=N/O | 0
33 | CN(CCOCCn1cc[n+](C)c1/C=N/O)S(=O)(=O)C(F)(F)F | 0
34 | C[n+]1ccn(CCCCS(C)(=O)=O)c1/C=N/O | 1

target: T1, Acetylcholinesterase (Mus musculus); assay: antidotal activity measured in mice exposed to soman; activity expressed as the no. of survivors at 24 hr out of population of 10 mice exposed intramuscularly at the dose 1/4 of 2LD50 of the compound

Row | SMILES | No. of survivors
35 | C[n+]1ccn(COCCCCS(C)(=O)=O)c1/C=N/O | 6
36 | C[n+]1ccn(COC(C)(C)C[N+](=O)[O-])c1/C=N/O | 8
37 | C[n+]1ccn(COCCS(C)(=O)=O)c1/C=N/O | 6
38 | CC(OCn1cc[n+](C)c1C(N)=O)C(C)(C)[N+](=O)[O-] (configuration not stated) | 9
39 | CCC(Cn1cc[n+](C)c1/C=N/O)NS(=O)(=O)C(F)(F)F (configuration not stated) | 5
40 | C[n+]1ccn(CCN(Cc2ccccc2)S(=O)(=O)c2ccccc2)c1/C=N/O | 1
41 | C[n+]1ccn(CCCNS(=O)(=O)C(F)(F)F)c1/C=N/O | 0
42 | CC[N+](C)(CC)CCn1cc[n+](C)c1/C=N/O | 0
43 | CC(CCn1cc[n+](C)c1/C=N/O)C(C)(C)[N+](=O)[O-] (configuration not stated) | 8
44 | CCC(Cn1cc[n+](C)c1/C=N/O)N(C)C (configuration not stated) | 0
45 | C[n+]1ccn(COCC(C)(C)[N+](=O)[O-])c1/C=N/O | 6
46 | CN(CCOCn1cc[n+](C)c1/C=N/O)S(=O)(=O)C(F)(F)F | 5
47 | CCCN(CCn1cc[n+](C)c1/C=N/O)S(=O)(=O)C(F)(F)F | 6
48 | CC[n+]1ccn(CCN(C)S(=O)(=O)C(F)(F)F)c1/C=N/O | 7
49 | C[n+]1ccn(CCC[n+]2ccc(C(N)=O)cc2)c1/C=N/O | 10
50 | CCN(CCn1cc[n+](C)c1/C=N/O)S(C)(=O)=O | 7
51 | CCCN(CCn1cc[n+](C)c1/C=N/O)S(=O)(=O)c1ccccc1 | 2

Row | SMILES | No. of survivors
52 | CC[n+]1ccn(CCCS(C)(=O)=O)c1/C=N/O | 10
53 | CN(CCCn1cc[n+](C)c1/C=N/O)S(=O)(=O)c1ccccc1 | 2
54 | CC[n+]1ccn(COC(C)(C)C[N+](=O)[O-])c1/C=N/O | 4
55 | CCC[n+]1ccn(CCN(C)C)c1/C=N/O | 0
56 | CN(CCn1cc[n+](C)c1/C=N/O)S(=O)(=O)C(F)(F)F | 6
57 | CCS(=O)(=O)CCOCn1cc[n+](C)c1/C=N/O | 8
58 | C[n+]1ccn(COCCS(=O)(=O)c2ccccc2)c1/C=N/O | 8
59 | CN(CCCn1cc[n+](C)c1/C=N/O)S(=O)(=O)C(F)(F)F | 8
60 | C[n+]1ccn(COCCCS(C)(=O)=O)c1/C=N/O | 10
61 | CC(OCn1cc[n+](C)c1/C=N/O)C(C)S(C)(=O)=O (configuration not stated) | 7 and 6
62 | C[n+]1ccn(COCCS(C)(=O)=O)c1C(N)=O | 7
63 | C[n+]1ccn(CCCC(C)(C)[N+](=O)[O-])c1/C=N/O | 9
64 | CN(C)CCn1cc[n+](C)c1/C=N/O | 10
65 | CCN(CCn1cc[n+](C)c1/C=N/O)S(=O)(=O)C(F)(F)F | 5
66 | C[n+]1ccn(CCCNS(=O)(=O)c2ccccc2)c1/C=N/O | 4
67 | CN(CCOCCn1cc[n+](C)c1/C=N/O)S(=O)(=O)C(F)(F)F | 1
68 | C[n+]1ccn(CCCCS(C)(=O)=O)c1/C=N/O | 8

target: T1, Acetylcholinesterase (Mus musculus); assay: Antidotal activity measured in mice exposed to tabun; activity expressed as the no. of survivors at 24 hr out of population of 10 mice each exposed intramuscularly at the dose 1/16 of 2LD50 of the compound

Row | SMILES | No. of survivors
69 | C[n+]1ccn(COCCCCS(C)(=O)=O)c1/C=N/O | 0
70 | C[n+]1ccn(COC(C)(C)C[N+](=O)[O-])c1/C=N/O | 0
71 | C[n+]1ccn(COCCS(C)(=O)=O)c1/C=N/O | 1
72 | C[n+]1ccn(CCN(Cc2ccccc2)S(=O)(=O)c2ccccc2)c1/C=N/O | 0
73 | C[n+]1ccn(CCCNS(=O)(=O)C(F)(F)F)c1/C=N/O | 0
74 | CCC(Cn1cc[n+](C)c1/C=N/O)N(C)C (configuration not stated) | 0
75 | C[n+]1ccn(COCC(C)(C)[N+](=O)[O-])c1/C=N/O | 3
76 | CCCN(CCn1cc[n+](C)c1/C=N/O)S(=O)(=O)C(F)(F)F | 8
77 | CC[n+]1ccn(CCN(C)S(=O)(=O)C(F)(F)F)c1/C=N/O | 2
78 | CCCN(CCn1cc[n+](C)c1/C=N/O)S(=O)(=O)c1ccccc1 | 8
79 | CCS(=O)(=O)CCOCn1cc[n+](C)c1/C=N/O | 3
80 | C[n+]1ccn(COCCS(=O)(=O)c2ccccc2)c1/C=N/O | 0
81 | CN(CCCn1cc[n+](C)c1/C=N/O)S(=O)(=O)C(F)(F)F | 3
82 | C[n+]1ccn(COCCCS(C)(=O)=O)c1/C=N/O | 5
83 | CC(OCn1cc[n+](C)c1/C=N/O)C(C)S(C)(=O)=O (configuration not stated) | 10 and 9
84 | C[n+]1ccn(COCCS(C)(=O)=O)c1C(N)=O | 2
85 | CCN(CCn1cc[n+](C)c1/C=N/O)S(=O)(=O)C(F)(F)F | 8
86 | CN(CCOCCn1cc[n+](C)c1/C=N/O)S(=O)(=O)C(F)(F)F | 0
87 | C[n+]1ccn(CCCCS(C)(=O)=O)c1/C=N/O | 5

— ChEMBL document CHEMBL1125665, “Quaternary salts of 2-[(hydroxyimino)methyl]imidazole. 5. Structure-activity relationships for side-chain nitro-, sulfone-, amino-, and aminosulfonyl-substituted analogues for therapy against anticholinesterase intoxication” (1991)
